The results in this text go back to patent publication US20250277059A1, “ANTIBODY USED TO TREAT CORONAVIRUS INFECTION” (priority 2022, published 2025).

Protein sequences, listed by entry. Tags and fused reporters are not part of them.
UniProt O15393, whole entry W306A: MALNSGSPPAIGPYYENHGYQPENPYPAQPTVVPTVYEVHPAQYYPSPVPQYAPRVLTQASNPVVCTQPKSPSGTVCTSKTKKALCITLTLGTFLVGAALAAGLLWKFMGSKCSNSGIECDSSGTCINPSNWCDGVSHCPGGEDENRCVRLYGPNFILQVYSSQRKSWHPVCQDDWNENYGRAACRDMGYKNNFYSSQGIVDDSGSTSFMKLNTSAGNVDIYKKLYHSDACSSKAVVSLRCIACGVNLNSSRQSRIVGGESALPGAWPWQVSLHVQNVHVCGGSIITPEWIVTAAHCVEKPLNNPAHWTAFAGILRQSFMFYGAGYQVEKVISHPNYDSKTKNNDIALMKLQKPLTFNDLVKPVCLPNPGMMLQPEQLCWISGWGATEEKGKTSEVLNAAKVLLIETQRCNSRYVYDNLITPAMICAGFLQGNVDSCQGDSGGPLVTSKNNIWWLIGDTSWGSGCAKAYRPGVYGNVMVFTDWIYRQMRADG

Positions count from the first letter of the chain named.

Assay [1] has as its target T1, TMPRSS2 chimera (human/292 to 309 cat) (human; cat, UniProt O15393 1-492). The assay can be described thus: flow cytometry on COS7 cells expressing the variant (FIG. 7A). A general note: In flow cytometry, cells or beads pass a laser one at a time.
Assay [2] deals with T2, W306A variant of human TMPRSS2 (human, UniProt O15393 1-492).
T2 construct: also called human TMPRSS2 W306A
The assay can be described thus: flow cytometry on COS7 cells expressing the variant (FIG. 7C).

In assay [3] the target is T1, TMPRSS2 chimera (human/292 to 309 cat). The assay can be described thus: flow cytometry, COS7 transfectant.
Assay [4] deals with T2, W306A variant of human TMPRSS2. The assay can be described thus: flow cytometry, COS7 transfectant.
Assay [5] concerns the target TMPRSS2 chimera (human/316 to 321 hamster) (human; hamster, UniProt O15393 1-492). The assay can be described thus: flow cytometry on COS7 cells expressing the variant (FIG. 7D).

B1: 1831_15 antibody (antibody, V domains shown)
VH: QVQLQQPGAELVKPGASVKLSCKASGYSFTTYWMHWVRQRPGQGLEWIGIIHPNSGTTNYNEKFKSKASLTVDKSSSTAYMQLSSLTSEDSAVYYCARLLWDYFDYWGQGTTLTVSS
VL: DIVMSQSPSSLAVSAGEKVTMSCKSSQSLLNSRTRKNFLAWYQQKPGQSPKLLIYWASTRESGVPDRFTGSGSGTDFTLTISSVQAEDLAVYYCKQSYNLYTFGGGTKLEIK
B1: the binding result in assay [1] and in assay [2] was “no binding” each time.

B2: 2114_16 antibody (antibody, V domains shown)
VH: EVQLQQSGPELVKPGASVKISCKASGYTFTDYYMNWVKRRHGKSLEWIGNINPNNGGTSYNQKFKGKATLTVDKSSSTAYMELRSLTSEDSVVYYCAREGDLFPFAYWGQGTLVTVSA
VL: QAVVTQESALTTSPGETVTLTCRSSIGTVTTSNFANWVQEKPDHLFTGLIGASNNRAPGVPARFSGSLIGDKAALTITGAQTEDEAIYFCALWFSNHWVFGGGTKLTVL
notes: also called 2114 antibody
B2: the binding result in assay [3] and in assay [4] was “no binding” in each case.

B3: 2020_12 antibody (antibody, V domains shown)
VH: QVQLQQPGAELAKPGASVKLSCKASGYTFTSYWMHWVKQRPGQGLEWIGLIPPNSGSSNYNEKFKSKATLTVDKSSRTAYMQLSSLTSEDSAVYYCARWDYGSSYGYFDVWGTGTTVTVSS
VL: DIVLTQSPASLAVSLGQRATISCRASESVSTSGYSYMHWYQQKPGQPPKLLIYLASNLESGVPVRFSGSGSGTDFTLNIHPVEEEDAATYYCQHSRELPPTFGAGTKLELK
In the case of B3, the binding result in assay [5] was “no binding”.

B4: 1864_10 antibody (antibody, V domains shown)
VH: QVQLQQSGPALVKPGASLKISCEASGYTFTYYSINWVKQRPGQGLEWIGWIFPGSGSTYYNEKFKGKATLTIDKSSSTAYMLLSSLTSEDSAVYFCARSDYGSAYGYFDVWGTGTTVTVSS
VL: B3 VL with E27K, V64A, E97D, P100L
Regarding B4, the binding result in assay [5] is listed as “no binding”.
